Here are results for 29 compounds from patent US20240360082A1, “SUBSTITUTED PYRIDONE COMPOUNDS USEFUL TO TREAT ORTH[…]” (priority 2021, published 2024).

The experiment has as its system influenza virus (multiple flu strains). In words: organism not typed. To be noted: MDCK.
[1] abbreviates: read-out: NA Alaska H3N2, NA assay, Alaska H3N2 strain.
Setting [2] is: read-out: NA CAL H1N1, NA assay, CAL H1N1 strain.
The mark [3] stands for this setting: read-out: NA Alaska H3N2 IC50, NA assay, Alaska H3N2 strain.
Setting [4] is: read-out: NA CAL H1N1 IC50, NA assay, CAL H1N1 strain.
[5] abbreviates: read-out: NA—PR8 H1N1, NA assay, PR8 H1N1 strain.

Like-named read-outs stand apart in the source and are kept apart here. Bounds are passed on as bounds.

On to `NC(=O)c1cc(-c2ccc(OCc3cccnc3Cl)cc2)c(C(F)(F)F)[nH]c1=O` [Example 119, 5-(4-((2-chloropyridin-3-yl)methoxy)phenyl)-2-oxo-6-(trifluoromethyl)-1,2-dihydropyridine-3-carboxamide], for which the IC50 runs as follows: under setting [1], 100 to 1000 nM; under setting [2], 100 to 1000 nM.

Regarding `NC(=O)c1cc(-c2ccc(OCc3cnc(NC4COC4)nc3)cc2)c(C(F)(F)F)[nH]c1=O` [Example 165, 5-(4-((2-(oxetan-3-ylamino)pyrimidin-5-yl)methoxy)phenyl)-2-oxo-6-(trifluoromethyl)-1,2-dihydropyridine-3-carboxamide], the IC50 by setting is: under setting [1], 100 to 1000 nM; under setting [2], 1000 to 5000 nM.

For `COCCOc1ccc(-c2cc(C(N)=O)c(=O)[nH]c2C(F)(F)F)cc1` [Example 254, 5-(4-(2-methoxyethoxy)phenyl)-2-oxo-6-(trifluoromethyl)-1,2-dihydropyridine-3-carboxamide], the IC50 lay in the range of 100 to 1000 nM under setting [3] and 1000 to 5000 nM under setting [4].

As for `NC(=O)c1cc(-c2ccc(OCc3cnc(NC4CCOC4)nc3)cc2)c(C(F)(F)F)[nH]c1=O` (stereo not drawn) [Example 166, 2-oxo-5-(4-((2-((tetrahydrofuran-3-yl)amino)pyrimidin-5-yl)methoxy)phenyl)-6-(trifluoromethyl)-1,2-dihydropyridine-3-carboxamide], the IC50 by setting is: under setting [1], 100 to 1000 nM; under setting [2], 1000 to 5000 nM.

As for `NC(=O)c1cc(-c2ccc(OCc3cc4c(cc3Cl)OCO4)cc2)c(C(F)(F)F)[nH]c1=O` [Example 148, 5-(4-((6-chlorobenzo[d][1,3]dioxol-5-yl)methoxy)phenyl)-2-oxo-6-(trifluoromethyl)-1,2-dihydropyridine-3-carboxamide], the IC50 is, setting by setting: under setting [1], 1000 to 5000 nM; under setting [2], 5000 to 10000 nM.

As for `Cc1ccc(-c2cc(C(N)=O)c(=O)[nH]c2C(F)(F)F)cc1` [Example 26, 2-oxo-5-(p-tolyl)-6-(trifluoromethyl)-1,2-dihydropyridine-3-carboxamide], under setting [5], the IC50 lay within 5000 to 10000 nM.

As to `COC[C@]1(C)COC[C@@H](COc2ccc(-c3cc(C(N)=O)c(=O)[nH]c3C(F)(F)F)cc2)O1` [Example 406, 5-(4-(((2S,6R)-6-(methoxymethyl)-6-methyl-1,4-dioxan-2-yl)methoxy)phenyl)-2-oxo-6-(trifluoromethyl)-1,2-dihydropyridine-3-carboxamide], the IC50 under setting [3] was below 10 nM and the IC50 under setting [4] lay in the range of 10 to 100 nM.

In the case of `NC(=O)c1cc(-c2ccc(OCc3cccnc3F)cc2)c(C(F)(F)F)[nH]c1=O` [Example 129, 5-(4-((2-fluoropyridin-3-yl)methoxy)phenyl)-2-oxo-6-(trifluoromethyl)-1,2-dihydropyridine-3-carboxamide], the IC50 lay in the range of 100 to 1000 nM under setting [1] and 1000 to 5000 nM under setting [2].

For `COc1cc(COc2ccc(-c3cc(C(N)=O)c(=O)[nH]c3C(F)(F)F)cc2)c(F)cn1` [Example 130, 5-(4-((5-fluoro-2-methoxypyridin-4-yl)methoxy)phenyl)-2-oxo-6-(trifluoromethyl)-1,2-dihydropyridine-3-carboxamide], the IC50 is 1000 to 5000 nM under setting [1] and 1000 to 5000 nM under setting [2].

`NC(=O)c1cc(-c2ccc(CN3CCCC3)cc2)c(C(F)(F)F)[nH]c1=O` [Example 5, 2-oxo-5-(4-(pyrrolidin-1-ylmethyl)phenyl)-6-(trifluoromethyl)-1,2-dihydropyridine-3-carboxamide]: under setting [5], the IC50 lay in the range of 5000 to 10000 nM.

On to `NC(=O)c1cc(-c2ccc(OCc3cncc(Cl)c3)cc2)c(C(F)(F)F)[nH]c1=O` [Example 213, 5-(4-((5-chloropyridin-3-yl)methoxy)phenyl)-2-oxo-6-(trifluoromethyl)-1,2-dihydropyridine-3-carboxamide], for which the IC50 fell in the range of 10 to 100 nM under setting [3] and 100 to 1000 nM under setting [4].

Consider `NC(=O)c1cc(-c2ccc(OCc3ccc(C(F)(F)F)nc3)cc2)c(C(F)(F)F)[nH]c1=O` [Example 111, 2-oxo-6-(trifluoromethyl)-5-(4-((8-(trifluoromethyl)pyridin-3-yl)methoxy)phenyl)-1,2-dihydropyridine-3-carboxamide], for which the IC50 lay within 100 to 1000 nM under setting [1] and 1000 to 5000 nM under setting [2].

As to `NC(=O)c1cc(-c2cccc(CO)c2)c(C(F)(F)F)[nH]c1=O` [Example 25, 5-(3-(hydroxymethyl)phenyl)-2-oxo-6-(trifluoromethyl)-1,2-dihydropyridine-3-carboxamide], under setting [5], the IC50 was 5000 to 10000 nM.

With `NC(=O)c1cc(-c2ccc(OCc3cnc(OCC4COC4)nc3)cc2)c(C(F)(F)F)[nH]c1=O` [Example 151, 5-(4-((2-(oxetan-3-ylmethoxy)pyrimidin-5-yl)methoxy)phenyl)-2-oxo-6-(trifluoromethyl)-1,2-dihydropyridine-3-carboxamide], the IC50 by setting is: under setting [1], 1000 to 5000 nM; under setting [2], 25000 to 50000 nM.

On to `CC(Oc1ccc(-c2cc(C(N)=O)c(=O)[nH]c2C(F)(F)F)cc1)c1cncc(C#N)c1` (single isomer, unassigned) [Example 124, (R or S)-5-(4-(1-(5-cyanopyridin-3-yl)ethoxy)phenyl)-2-oxo-6-(trifluoromethyl)-1,2-dihydropyridine-3-carboxamide], for which the IC50 under setting [1] lay within 100 to 1000 nM and the IC50 under setting [2] fell in the range of 100 to 1000 nM.

Regarding `CNc1ncc(COc2ccc(-c3cc(C(N)=O)c(=O)[nH]c3C(F)(F)F)cc2)cn1` [Example 158, 5-(4-((2-(methylamino)pyrimidin-5-yl)methoxy)phenyl)-2-oxo-6-(trifluoromethyl)-1,2-dihydropyridine-3-carboxamide], the IC50 is, setting by setting: under setting [1], 10 to 100 nM; under setting [2], 1000 to 5000 nM.

Turning to `NC(=O)c1cc(-c2ccc(OCc3cccs3)cc2)c(C(F)(F)F)[nH]c1=O` [Example 115, 2-oxo-5-(4-(thiophen-2-ylmethoxy)phenyl)-6-(trifluoromethyl)-1,2-dihydropyridine-3-carboxamide], the IC50 was 100 to 1000 nM under setting [1] and 1000 to 5000 nM under setting [2].

Consider `NC(=O)c1cc(-c2ccc(OCC3COCCO3)c(F)c2)c(C(F)(F)F)[nH]c1=O` (stereo not drawn) [Example 239, 5-(4-((1,4-dioxan-2-yl)methoxy)-3-fluorophenyl)-2-oxo-6-(trifluoromethyl)-1,2-dihydropyridine-3-carboxamide], for which the IC50 lay in the range of 100 to 1000 nM under setting [3] and 1000 to 5000 nM under setting [4].

Consider `NC(=O)c1cc(-c2ccc(OCC3CCOC3)cc2)c(C(F)(F)F)[nH]c1=O` (stereo not drawn) [Example 231, 2-oxo-5-(4-((tetrahydrofuran-3-yl)methoxy)phenyl)-6-(trifluoromethyl)-1,2-dihydropyridine-3-carboxamide], for which the IC50 by setting is: under setting [3], 100 to 1000 nM; under setting [4], 1000 to 5000 nM.

With `NC(=O)c1cc(-c2ccc(OCc3cnc(O)nc3)cc2)c(C(F)(F)F)[nH]c1=O` [Example 150, 5-(4-((2-hydroxypyrimidin-5-yl)methoxy)phenyl)-2-oxo-6-(trifluoromethyl)-1,2-dihydropyridine-3-carboxamide], the IC50 reads like this: under setting [1], 1000 to 5000 nM; under setting [2], 25000 to 50000 nM.

On to `COc1cc(-c2cc(C(N)=O)c(=O)[nH]c2C(F)(F)F)ccc1OCC1COCCO1` (stereo not drawn) [Example 244, 5-(4-((1,4-dioxan-2-yl)methoxy)-3-methoxyphenyl)-2-oxo-6-(trifluoromethyl)-1,2-dihydropyridine-3-carboxamide], for which, under setting [3], the IC50 fell in the range of 10000 to 25000 nM.

On to `NC(=O)c1cc(-c2ccc(OCC3CCCCO3)cc2)c(C(F)(F)F)[nH]c1=O` (stereo not drawn) [Example 236, 2-oxo-5-(4-((tetrahydro-2H-pyran-2-yl)methoxy)phenyl)-6-(trifluoromethyl)-1,2-dihydropyridine-3-carboxamide], for which the IC50 runs as follows: under setting [3], 100 to 1000 nM; under setting [4], 100 to 1000 nM.

For `Cc1cc(COc2ccc(-c3cc(C(N)=O)c(=O)[nH]c3C(F)(F)F)cc2)no1` [Example 224, 5-(4-((5-methylisoxazol-3-yl)methoxy)phenyl)-2-oxo-6-(trifluoromethyl)-1,2-dihydropyridine-3-carboxamide], the IC50 under setting [3] fell in the range of 100 to 1000 nM and the IC50 under setting [4] is 5000 to 10000 nM.

With `NC(=O)c1cc(-c2ccc(OCC3(S(=O)(=O)C4CC4)CC3)cc2)c(C(F)(F)F)[nH]c1=O` [Example 253, 5-(4-((1-(cyclopropylsulfonyl)cyclopropyl)methoxy)phenyl)-2-oxo-6-(trifluoromethyl)-1,2-dihydropyridine-3-carboxamide], the IC50 by setting is: under setting [3], 100 to 1000 nM; under setting [4], 1000 to 5000 nM.

On to `Cn1nccc1COc1ccc(-c2cc(C(N)=O)c(=O)[nH]c2C(F)(F)F)cc1` [Example 126, 5-(4-((1-methyl-1H-pyrazol-5-yl)methoxy)phenyl)-2-oxo-6-(trifluoromethyl)-1,2-dihydropyridine-3-carboxamide], for which the IC50 was 100 to 1000 nM under setting [1] and 1000 to 5000 nM under setting [2].

Consider `NC(=O)c1cc(-c2ccc(OCc3ccc4nccnc4c3)cc2)c(C(F)(F)F)[nH]c1=O` [Example 131, 2-oxo-5-(4-(quinoxalin-6-ylmethoxy)phenyl)-6-(trifluoromethyl)-1,2-dihydropyridine-3-carboxamide], for which the IC50 lay in the range of 100 to 1000 nM under setting [1] and 5000 to 10000 nM under setting [2].

As for `NC(=O)c1cc(-c2ccc(OCC3CNCCO3)cc2)c(C(F)(F)F)[nH]c1=O` (stereo not drawn) [Example 189, 5-(4-(morpholin-2-ylmethoxy)phenyl)-2-oxo-6-(trifluoromethyl)-1,2-dihydropyridine-3-carboxamide], the IC50 runs as follows: under setting [1], 1000 to 5000 nM; under setting [2], 10000 to 25000 nM.

Consider `NC(=O)c1cc(-c2ccc(OC(CO)c3cnccn3)cc2)c(C(F)(F)F)[nH]c1=O` (stereo not drawn) [Example 187, 5-(4-(2-hydroxy-1-(pyrazin-2-yl)ethoxy)phenyl)-2-oxo-6-(trifluoromethyl)-1,2-dihydropyridine-3-carboxamide], for which the IC50 was in the range of 100 to 1000 nM under setting [1] and 1000 to 5000 nM under setting [2].

As for `NC(=O)c1cc(-c2ccc(OC3CC4(COC4)C3)cc2)c(C(F)(F)F)[nH]c1=O` [Example 230, 5-(4-((2-oxaspiro[3.3]heptan-6-yl)oxy)phenyl)-2-oxo-6-(trifluoromethyl)-1,2-dihydropyridine-3-carboxamide], the IC50 reads like this: under setting [3], 1000 to 5000 nM; under setting [4], 5000 to 10000 nM.
